Protein sequences, listed by entry. Tags and fused reporters are not part of them. Lines headed by an entry give the natural chain unless they say otherwise; changes in a name come on top.
UniProt Q9H2X9: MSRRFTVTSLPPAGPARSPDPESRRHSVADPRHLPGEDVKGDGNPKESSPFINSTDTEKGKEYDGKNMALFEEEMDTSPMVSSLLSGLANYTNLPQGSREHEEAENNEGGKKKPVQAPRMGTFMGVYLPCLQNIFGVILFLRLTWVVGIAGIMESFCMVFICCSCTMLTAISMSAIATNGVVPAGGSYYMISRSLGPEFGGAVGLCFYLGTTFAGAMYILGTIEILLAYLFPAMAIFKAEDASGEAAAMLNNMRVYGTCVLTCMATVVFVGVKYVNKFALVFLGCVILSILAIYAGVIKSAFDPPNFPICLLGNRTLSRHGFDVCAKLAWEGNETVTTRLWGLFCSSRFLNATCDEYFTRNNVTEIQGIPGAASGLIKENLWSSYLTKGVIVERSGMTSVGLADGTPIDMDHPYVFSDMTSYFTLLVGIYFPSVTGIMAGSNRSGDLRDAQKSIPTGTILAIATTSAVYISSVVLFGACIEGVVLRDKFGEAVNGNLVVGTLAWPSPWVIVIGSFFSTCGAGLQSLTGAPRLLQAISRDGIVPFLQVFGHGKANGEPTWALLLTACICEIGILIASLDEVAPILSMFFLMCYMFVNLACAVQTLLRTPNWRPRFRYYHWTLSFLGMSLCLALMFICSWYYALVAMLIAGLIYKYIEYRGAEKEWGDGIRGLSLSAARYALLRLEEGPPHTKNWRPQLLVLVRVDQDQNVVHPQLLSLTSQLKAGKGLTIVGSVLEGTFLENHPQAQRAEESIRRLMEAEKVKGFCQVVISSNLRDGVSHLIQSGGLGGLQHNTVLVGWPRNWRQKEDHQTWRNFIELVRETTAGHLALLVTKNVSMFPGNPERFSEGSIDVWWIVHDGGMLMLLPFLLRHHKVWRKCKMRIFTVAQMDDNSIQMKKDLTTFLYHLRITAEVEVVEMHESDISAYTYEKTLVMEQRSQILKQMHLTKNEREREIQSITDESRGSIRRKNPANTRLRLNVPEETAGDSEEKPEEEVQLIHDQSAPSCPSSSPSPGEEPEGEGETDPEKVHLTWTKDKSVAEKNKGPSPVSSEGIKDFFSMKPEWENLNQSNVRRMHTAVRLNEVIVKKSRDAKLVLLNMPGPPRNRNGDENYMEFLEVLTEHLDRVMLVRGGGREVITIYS

Several values for one entry are separate records, joined by “and”; a condition that tells them apart may be missing. Equal values may be shown once. Only a part is listed here, and it is no random draw. Activity calls are given as the source filed them.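 The calls were made as follows: active = thallium flux slope and its plate-corrected score both differing from the plate sample mean at a set confidence after two filtering rounds, in either direction; inactive = the rest.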
The molecules below were run against Solute carrier family 12 member 5 (Homo sapiens) (UniProt Q9H2X9) (assay: KCC2 cotransporter modulators, thallium flux, primary screen, cell-based, HEK293 KCC2, FluoZin-2 fluorescence, MLSMR (AID 1456)). Details: KCC2 cells, thallium flux FluoZin-2 fluorescence; at 10 µM; active compounds read high.
`COP1(=S)c2c(C)nn(CCC#N)c2N=C(c2ccc(F)cc2)N1C` (stereo not given) was tested, and the B-score was inactive: 0.865.
In the case of `CCC(C)N(CC(C)C)C(=S)SC(NC(C)=O)C(Cl)(Cl)Cl` (stereo not given), the B-score is reported as inactive: -0.0651.
In the case of `CCOC(=O)c1ccc(NC(=O)C(C)(CCl)SC)cc1` (stereo not given), the B-score is reported as inactive: 0.155.
`Cc1cc(SC(NC(=O)c2ccccc2)C(Cl)(Cl)Cl)nc(C(C)C)n1` (stereo not given) was tested, and the B-score was inactive: 0.89.
With `CCOC(=O)Nc1ccc([As](=O)(O)O)c(O)c1` the B-score was inactive: -0.0465.
With `O=[N+]([O-])c1ccc(Nc2ccc(Oc3ccc([N+](=O)[O-])cc3[N+](=O)[O-])cc2)c([N+](=O)[O-])c1` the B-score was inactive: -0.305.
`O=P(Nc1ccccn1)(c1cccc2ccccc12)c1cccc2ccccc12` was tested, and the B-score was inactive: -1.39.
`Cc1cc(SC(NC=O)C(Cl)(Cl)Cl)ncn1` (stereo not given) was tested, and the B-score was inactive: 0.371.
With `CCOC(=O)Nc1cccc([As](=O)(O)O)c1` the B-score was inactive: 0.803.
For `Cc1ccc2nc3c(c(C)c2c1)CC(C(Cl)Cl)S3` (stereo not given), the B-score was inactive: 0.508.
With `Cc1ccc(OP(=O)(Nc2ccc([N+](=O)[O-])cn2)Oc2ccc(C)cc2)cc1` the B-score was inactive: -0.501.
`O=[As](O)(c1ccc(O)cc1)c1ccccc1O` was tested, and the B-score was inactive: 1.3.
`C[As](=O)(O)c1cccc(C(=O)O)c1` was tested, and the B-score was inactive: -0.593.
In the case of `O=[N+]([O-])c1cc([N+](=O)[O-])c(-c2ccn[nH]2)s1`, the B-score is reported as inactive: -0.0282.
In the case of `CC(C)NC(=O)NP(=O)(Oc1ccccc1)Oc1ccccc1`, the B-score is reported as inactive: 0.206.
For `CCN(CC)C(=S)SC(NC=O)C(Cl)(Cl)Cl` (stereo not given), the B-score was inactive: 1.41.
`CC(C)c1ccc(OP(=O)(Nc2ccccn2)Oc2ccccc2F)cc1` (stereo not given) was tested, and the B-score was inactive: -0.629.
`ClCCSc1nnc(-c2cccnc2)o1` was tested, and the B-score was inactive: -0.809.
`COc1cc(I)ccc1[As](=O)(O)O` was tested, and the B-score was inactive: 0.577.
`COc1ccc2nc(NP(=O)(c3ccccc3)c3ccccc3)sc2c1` was tested, and the B-score was inactive: 0.111.
For `Cc1cc(=O)[nH]c(N[N+](=O)[O-])n1`, the B-score was inactive: -0.0625.
`O=C(OC1CN2CCC1CC2)C12CC3CC(CC(C3)C1)C2` (stereo not given) was tested, and the B-score was inactive: 0.0478.
With `Cc1c2c(nc3ccccc13)SC(C(Cl)Cl)C2` (stereo not given) the B-score was inactive: -1.05.
`COc1ccc(N/C(=N/P(=O)(N2CCOCC2)N2CCOCC2)N2CCOCC2)cc1` was tested, and the B-score was inactive: 0.385.
With `Cc1cccc(OCC(=O)OC2CN3CCC2CC3)c1` (stereo not given) the B-score was inactive: 0.726.
In the case of `O=[As](O)(c1cccc(O)c1)c1cccc(O)c1`, the B-score is reported as inactive: -0.285.
In the case of `O=[As](O)(O)c1cccnc1`, the B-score is reported as inactive: 0.892.
For `COc1cc(C(=O)NCC2(N3CCOCC3)CCCCC2)cc(Cl)c1OC(C)C`, the B-score was inactive: -0.00194.
`O=C(OC1CN2CCC1CC2)c1ccc(Cl)cc1` (stereo not given) was tested, and the B-score was inactive: 0.927.
For `CCOP(=O)(Nc1cccc2ccccc12)OCC`, the B-score was inactive: 0.436.
For `COc1cc(C2NCCC3(OCCO3)C2(C)C)cc(OC)c1OC` (stereo not given), the B-score was inactive: -0.825.
For `Cc1ccc(NCCc2c([N+](=O)[O-])cc([N+](=O)[O-])cc2[N+](=O)[O-])cc1`, the B-score was inactive: -0.0273.
With `Nc1cccc2c([As](=O)(O)O)cccc12` the B-score was inactive: -0.894.
`Nc1ccccc1[As](=O)(O)c1ccccc1` was tested, and the B-score was inactive: 0.0378.
With `O=C(O)COc1ccc([As](=O)(O)O)cc1[N+](=O)[O-]` the B-score was inactive: -0.000825.
For `CS(=O)(=O)c1cc([N+](=O)[O-])c2no[n+]([O-])c2c1`, the B-score was inactive: 1.25.
For `O=P(Nc1nccs1)(Oc1ccccc1)Oc1ccccc1`, the B-score was inactive: -0.168.
In the case of `O=P(Nc1nccs1)(c1ccccc1)c1nc2ccccc2s1` (stereo not given), the B-score is reported as inactive: 2.47.
With `CCOP1(=S)c2c(C)nn(CCC#N)c2N=C(c2ccccc2F)N1C` (stereo not given) the B-score was inactive: 1.12.
`O=[N+]([O-])c1ccc2c(c1)nnn2O` was tested, and the B-score was inactive: -0.0953.
`CN(C(=O)Cc1ccccc1)[C@@H]1CC[C@]2(CCCO2)C[C@H]1N1CCCC1` was tested, and the B-score was inactive: -0.271.
`CCOP1(=S)c2c(C)nn(CCC#N)c2N=C(c2ccc(F)cc2)N1C` (stereo not given) was tested, and the B-score was inactive: 0.0258.
`NC(=O)Nc1ccc([As](=O)(O)O)cc1` was tested, and the B-score was inactive: 1.36.
`O=C(/C=C/c1ccccc1)OC1CN2CCC1CC2` (stereo not given) was tested, and the B-score was inactive: -0.899.
With `CN(C)C1(CNC(=O)c2ccc(S(C)(=O)=O)cc2)CCCCC1` the B-score was inactive: 0.254.
`Cc1nn(-c2ccccc2)c2c1P(=O)(N1CCOCC1)N(C)C(c1ccccc1)=N2` (stereo not given) was tested, and the B-score was inactive: 0.00554.
`Cc1ccc(OCC(=O)OC2CN3CCC2CC3)cc1` (stereo not given) was tested, and the B-score was inactive: 0.094.
With `O=[As](O)(c1cccs1)c1cccs1` the B-score was inactive: 1.2.
In the case of `Nc1cccc([As](=O)(O)c2ccccc2)c1`, the B-score is reported as inactive: -0.891.
In the case of `CC(C)(C)C(=O)NC(Sc1ncccn1)C(Cl)(Cl)Cl` (stereo not given), the B-score is reported as inactive: -0.773.
For `Clc1n[nH]nc1-c1nn[nH][15n]1`, the B-score was inactive: 0.356.
For `O=P1(Nc2ccccn2)COc2ccccc2OC1`, the B-score was inactive: -0.0951.
For `CC1(CBr)Cn2c(nc3ccccc3c2=O)S1` (stereo not given), the B-score was inactive: -0.17.
In the case of `O=[As](O)(c1ccccc1Br)c1ccccc1Br`, the B-score is reported as inactive: 0.298.
With `CN(C(=O)Cc1ccc(Cl)c(Cl)c1)[C@@H]1CCCC[C@H]1N1CCCC1` the B-score was inactive: -0.258.
In the case of `c1nnnn1CCn1cnnn1`, the B-score is reported as inactive: -0.187.
In the case of `CC(C)C(=O)NC(Sc1ccccc1)C(Cl)(Cl)Cl` (stereo not given), the B-score is reported as inactive: -1.32.
With `O=P(Nc1nccs1)(c1ccccc1)c1ccccc1` the B-score was inactive: 0.919.
In the case of `C[C@H]1OP(=O)(Oc2ccccc2)[C@H](O)[C@H](O)[C@H]1N=[N+]=[N-]` (stereo not given in full), the B-score is reported as inactive: 0.556.
`O=P(Nc1nc2ccccc2s1)(c1ccccc1)c1ccccc1` was tested, and the B-score was inactive: 0.996.
`O=P(Nc1ccccn1)(c1ccc(Br)cc1)c1ccc(Br)cc1` was tested, and the B-score was inactive: 0.345.
In the case of `C(Cc1nn[nH]n1)Cc1nn[nH]n1`, the B-score is reported as inactive: 0.489.
In the case of `Nc1ccc([As](=O)(O)c2ccc([N+](=O)[O-])cc2)cc1`, the B-score is reported as inactive: 0.27.
With `O=C(OC1CN2CCC1CC2)c1cccc(Cl)c1` (stereo not given) the B-score was inactive: 0.639.
For `CC(=O)NC(SC(=S)N(C)C)C(Cl)(Cl)Cl` (stereo not given), the B-score was inactive: 1.24.
For `O=[N+]([O-])c1ncn(CCn2cnc([N+](=O)[O-])n2)n1`, the B-score was inactive: 0.104.
`O=[As](O)(c1ccccc1)c1ccc(O)cc1` was tested, and the B-score was inactive: -0.112.
With `CCNC(=S)/N=C(\N)N[N+](=O)[O-]` the B-score was inactive: 0.0122.
`O=C(NC1CCS(=O)(=O)C1)NP(=S)(Oc1ccccc1)Oc1ccccc1` (stereo not given) was tested, and the B-score was inactive: 1.55.
In the case of `Cc1ccc(NP(=O)(Oc2cccc(C)c2)Oc2cccc(C)c2)nc1`, the B-score is reported as inactive: 0.719.
For `CCOC(=O)NC(Sc1ccccc1)C(Cl)(Cl)Cl` (stereo not given), the B-score was inactive: 0.558.
`c1ccc(-c2nn[nH]n2)c(-c2nn[nH]n2)c1` was tested, and the B-score was inactive: 1.48.
For `O=c1c2cc([N+](=O)[O-])ccc2[nH]c2c([N+](=O)[O-])cc([N+](=O)[O-])cc12`, the B-score was active: 7.43.
For `CN(C)C(=O)Oc1noc2ccccc12`, the B-score was inactive: -0.31.
`Cc1ccccc1OP(=O)(Nc1ccccn1)Oc1ccccc1C` was tested, and the B-score was inactive: -1.43.
With `Cc1ccc(OP(=O)(Nc2ccccn2)Oc2ccc(C)cc2)cc1` the B-score was inactive: -0.321.
For `COC(=O)c1cc2c(s1)N=C(c1ccccc1)N(C)P2(=O)N1CCOCC1` (stereo not given), the B-score was inactive: 0.689.
In the case of `CCC(=O)N1C2C3N(C(=O)CC)C1C1N(C(=O)CC)C(C(N1C(=O)CC)N3C(=O)CC)N2C(=O)CC`, the B-score is reported as inactive: 0.497.
In the case of `CC(C)(C)C(=O)NC(Sc1ccccc1)C(Cl)(Cl)Cl` (stereo not given), the B-score is reported as inactive: -1.36.
With `CCOc1ccc(C2=NCC(CBr)S2)cc1` (stereo not given) the B-score was inactive: 1.09.
With `CC(=O)Nc1ccc(Oc2c([N+](=O)[O-])cc([N+](=O)[O-])cc2[N+](=O)[O-])cc1` the B-score was inactive: 0.738.
With `CC(=O)Nc1ccc([As](=O)(O)O)c(O)c1` the B-score was inactive: -0.533.
With `C[C@H]1OP(=O)(Oc2ccccc2)C[C@@H]2O[C@@H]21` (stereo not given in full) the B-score was inactive: 0.878.
`C[C@@H]1C=CCP(=O)(Oc2ccccc2)O1` (stereo not given in full) was tested, and the B-score was inactive: 0.137.
`Cc1ccc(OP(=O)(Nc2nccs2)Oc2ccc(C)cc2)cc1` was tested, and the B-score was inactive: 0.0566.
With `COc1ccccc1OP(=O)(Nc1ccc(C)cn1)Oc1ccccc1OC` the B-score was inactive: 0.715.
With `CN1CCCC(OC(=O)C(c2ccccc2)c2ccccc2)C1` (stereo not given) the B-score was inactive: 0.605.
`Clc1ccc(Cl)c(NC2=NCC(CBr)S2)c1` (stereo not given) was tested, and the B-score was inactive: -0.114.
For `Cc1ccc(N/C(=N/P(=O)(N2CCOCC2)N2CCOCC2)N2CCOCC2)cc1`, the B-score was inactive: 0.0995.
`Nc1cc(N)c2nonc2c1[N+](=O)[O-]` was tested, and the B-score was inactive: -0.791.
`O=C(NC(Sc1ccncn1)C(Cl)(Cl)Cl)c1ccccc1` (stereo not given) was tested, and the B-score was inactive: 0.786.
In the case of `Cc1c2non([O-])c-2c(C)[n+](=O)[n+]1[O-]`, the B-score is reported as inactive: 0.341.
`Oc1ccccc1CNc1ccccn1` was tested, and the B-score was inactive: -0.109.
In the case of `Cc1ccc(NP(=O)(Oc2ccccc2F)Oc2ccccc2F)nc1`, the B-score is reported as inactive: -1.98.
For `Cc1cc(SC(NC(=O)c2ccc(F)cc2)C(Cl)(Cl)Cl)ncn1` (stereo not given), the B-score was inactive: 0.107.
For `CCOP(=O)(Nc1ccccc1)OCC`, the B-score was inactive: 0.317 and inactive: -0.151.
For `CC(=O)Nc1ccc([As](=O)(O)O)cc1`, the B-score was inactive: -0.256.
`O=C(O)c1ccccc1[As](=O)(O)O` was tested, and the B-score was inactive: 0.
For `O=P(Nc1nc2ccc(Cl)cc2s1)(c1ccccc1)c1ccccc1`, the B-score was active: 15.3.
`CCN(N=Nc1nonc1N)c1nonc1N` was tested, and the B-score was inactive: 0.182.
`Nc1cccc2ccc([As](=O)(O)O)cc12` was tested, and the B-score was inactive: 2.07.
`O=C(Nc1cc([As](=O)(O)O)ccc1O)c1ccccc1` was tested, and the B-score was inactive: 0.148.
In the case of `O=[N+]([O-])c1cccc(NC2=NCC(CBr)S2)c1` (stereo not given), the B-score is reported as inactive: 0.934.
`O=C(O)CNc1ccc([As](=O)(O)O)cc1` was tested, and the B-score was inactive: -0.0251.
With `CC(C)(C)C(=O)NC(Sc1ccncn1)C(Cl)(Cl)Cl` (stereo not given) the B-score was inactive: 0.0507.
For `O=[N+]([O-])c1ncn(CCn2ncnc2[N+](=O)[O-])n1`, the B-score was inactive: 0.512.
For `O=[N+]([O-])c1cccc2n[nH]nc12`, the B-score was inactive: 1.2.
For `CC(=O)N1C2C3N(C(C)=O)C1C1N(C(C)=O)C(C(N1C(C)=O)N3C(C)=O)N2C(C)=O`, the B-score was inactive: 0.653.
For `O=[N+]([O-])c1cc([N+](=O)[O-])c(CCNc2ccccc2)c([N+](=O)[O-])c1`, the B-score was inactive: -0.666.
`Cc1ccc(NP(=O)(Oc2ccccc2)Oc2ccccc2)nc1` was tested, and the B-score was inactive: -1.04.
With `CN(C)C(=O)OCCc1n(C)cc[n+]1C` the B-score was inactive: -0.425.
In the case of `CC1CCN(C(=O)Oc2c(Cl)cc(Cl)c3cccnc23)CC1`, the B-score is reported as inactive: -1.43.
With `C[N+]1=C2C=CC=CC=C2SC12C([N+](=O)[O-])=CC([N+](=O)[O-])=C[C-]2[N+](=O)[O-]` (stereo not given) the B-score was active: 14.7.
`Nc1ccc([As](=O)(O)c2ccc(N)cc2)cc1` was tested, and the B-score was inactive: 1.01.
`CCN(/C(=N/P(=O)(N1CCOCC1)N1CCOCC1)N1CCOCC1)c1ccc(OC)cc1` was tested, and the B-score was inactive: -0.00825.

Source: PubChem BioAssay AID1456 (Vanderbilt High Throughput Screening Facility, 2008)
